The values below are quoted from earlier work in patent publication US6177437A, “Inhibitors of Herpes Simplex virus uracil-DNA glycosylase” (University of Massachusetts Medical Center, priority 1999, dated 2001).

Sequences of proteins named here, by UniProt entry; tags and fusion partners are left off. A change or cut given only in a name is not applied to a line headed by its entry.
UniProt P10186: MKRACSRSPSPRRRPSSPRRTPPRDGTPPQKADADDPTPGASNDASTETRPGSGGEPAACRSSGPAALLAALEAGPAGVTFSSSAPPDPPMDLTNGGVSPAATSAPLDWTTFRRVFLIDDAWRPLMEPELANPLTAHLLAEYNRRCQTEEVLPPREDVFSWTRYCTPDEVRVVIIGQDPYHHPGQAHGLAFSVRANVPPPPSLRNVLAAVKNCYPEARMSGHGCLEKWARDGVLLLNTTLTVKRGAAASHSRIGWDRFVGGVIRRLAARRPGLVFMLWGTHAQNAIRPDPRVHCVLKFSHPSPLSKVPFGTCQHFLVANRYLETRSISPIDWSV

SMILES strings stand for the structures.

The data set deals with T1, HSV1 uracil-DNA glycosylase (HSV1 UDG) (Human herpesvirus 1, UniProt P10186).
T1 construct: made in house
Particulars: cited from earlier work.

Consider `CCCCc1ccc(Nc2cc(=O)[nH]c(=O)[nH]2)cc1` [Compound 3], for which the IC50 is 150 µM.

The term IC50 denotes the concentration that inhibits the measured activity by half.
